Values quoted from earlier work as cited in US6124275A, “Methods and compositions for controlling a pest population” (priority 1999, dated 2000).

System: rats
Conditions: Merck Index; cited from earlier work

For `O=C(OCc1ccccc1)c1ccccc1O` [BS, benzyl salicylate], the LD50 is listed as 2,227 mg/Kg.
